The source of these data is PubChem BioAssay AID485313 (National Center for Advancing Translational Sciences (NCATS), 2010).

The list shows a part of the results, in another mix than the full data. The source made the active and inactive calls. The call rests on the fitted dose curve; in most records, active means well fitted activation curve with a large enough effect; inconclusive means small, poorly fitted or top-dose-only effect; inactive means no such curve, though single readings can be large or run the other way.

This experiment is described as follows: qHTS Assay for NPC1 Promoter Activators.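 Further: reporter is driven by a mutant NPC1 promoter; % of control where 0% means no effect; nearly all actives have a fitted effect of over 60% in size.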 The conditions noted are these: Huh7 NPC1 promoter luciferase reporter, 24 h; at 9.22 µM (top of the series).
As for `CP(=O)(Nc1ccc2c(c1)OCCO2)Oc1ccccc1` (centres undefined), the activation was inactive: -0.46%.
For the compound `Cc1ccccc1NP(C)(=O)Nc1ccccc1C`, the activation is inactive: -0.617%.
With `CP(=O)(Nc1ccc(SC(F)(F)F)cc1)Oc1ccc(F)cc1` (centres undefined) the figure was inactive: 2.93%.
On to `CCOP(C)(=S)SCC(=O)NC(C)(CC)C(=O)O` (centres undefined), for which the activation was inactive: -0.877%.
With `O=[N+]([O-])c1ccc(OP2(=O)COCCO2)cc1` (centres undefined) the figure was inactive: -1.79%.
With `Cc1cc(-c2cccc3ccccc23)c(C)cn1.O=[N+]([O-])c1cc([N+](=O)[O-])c(O)c([N+](=O)[O-])c1` the figure was inactive: -1.99%; with `COc1ccc(OP(C)(=O)Nc2cccc(Br)c2)cc1` (centres undefined), inactive: 0.638%.
With `CN(C)CCOC(=O)C(O)(c1ccccc1)C1CCCCC1` (centres undefined) the figure was inactive: 0.655%.
`COc1ccc(NP(C)(=O)Oc2ccccc2OC)cc1` (centres undefined): the activation was inactive: -5.71%.
With `CCN(CC)CCCOC(=O)C(O)(c1ccccc1)C1CCCCC1` (centres undefined) the figure was inactive: 0.606%; with `CP(=O)(Nc1ccccc1)Oc1ccc(F)cc1` (centres undefined), inactive: -1.09%.
With `CCCCCOc1ccc(NP(C)(=O)Oc2ccc(Cl)cc2Cl)cc1` (centres undefined) the figure was inactive: 0.931%; with `CCOC(=O)c1ccc(NP(C)(=O)Oc2ccc(F)cc2)cc1` (centres undefined), inactive: -7.8%.
For `COc1ccc(OP(C)(=O)Nc2ccc(SC(F)(F)F)cc2)cc1` (centres undefined), the activation is inactive: -0.269%.
With `O=C(OCCN1CCN(CCOCc2ccccc2)CC1)C(O)(c1ccccc1)c1ccccc1` the figure was inactive: -2.54%; with `CP(=O)(Nc1ccccc1F)Oc1ccccc1` (centres undefined), inactive: -2.24%; with `CC(C)c1ccc(OP(C)(=O)Nc2ccc(SC(F)(F)F)cc2)cc1` (centres undefined), inactive: -2.75%.
With `O=[N+]([O-])c1cc([N+](=O)[O-])c(Nc2ccccn2)c([N+](=O)[O-])c1` the figure was inactive: -31.3%; with `Cc1c(NP(C)(=O)Oc2ccc(C(C)C)cc2)c(=O)n(-c2ccccc2)n1C` (centres undefined), inactive: 1.88%; with `CP(=O)(Nc1ccccn1)Oc1ccccc1` (centres undefined), inactive: -5.99%.
With `COc1ccccc1OP(C)(=O)Nc1ccc(C)cc1C` (centres undefined) the figure was inactive: -1.1%; with `CCc1ccc(OP(C)(=O)O)cc1`, inactive: 0.423%.
In the case of `COc1ccccc1OP(C)(=O)Nc1ccc(Br)cc1` (centres undefined), the activation is inactive: 1.79%.
With `COc1ccc(OP(C)(=O)Nc2ccccn2)cc1` (centres undefined) the figure was inactive: -2.51%; with `CN(C)CCOC(=O)C(O)(c1ccccc1)C1CCCC1` (centres undefined), inactive: 11.5%; with `CP(=O)(OCCOc1ccccc1)OCCOc1ccccc1`, inactive: 1.43%.
With `CP(=O)(Nc1ccc(Cl)cc1Cl)Oc1ccccc1` (centres undefined) the figure was inactive: -12.1%; with `Cc1cc(C)cc(OP(C)(=O)Nc2cccc(C(F)(F)F)c2)c1` (centres undefined), inactive: -6%; with `COc1ccccc1OP(C)(=O)Nc1ccc(C)c(C)c1` (centres undefined), inactive: 1.36%.
With `COc1ccc(OP(C)(=O)Nc2ccccc2Br)cc1` (centres undefined) the figure was inactive: -0.868%; with `CCOC(=O)c1ccc(NP(C)(=O)Oc2ccc(Cl)cc2)cc1` (centres undefined), inactive: -2.24%; with `CP(=O)(OC12CC3CC(CC(C3)C1)C2)OC12CC3CC(CC(C3)C1)C2`, inactive: -1.4%.
For the compound `CC(C)(C)c1ccc(OP(C)(=O)O)cc1`, the activation was inactive: 3.39%.
With `COc1ccccc1OP(C)(=O)Nc1ccccc1Br` (centres undefined) the figure was inactive: -4.46%.
Regarding `CP(=O)(Nc1ccc(Cl)cc1)Oc1ccc(F)cc1` (centres undefined), the activation is inactive: -1.36%.
Take `CN(C)C(=O)c1c([N+](=O)[O-])cc([N+](=O)[O-])cc1[N+](=O)[O-]`: the activation is inactive: 0.286%.
With `CCN(CC)CC(O)COC(=O)C(O)(c1ccccc1)C1CCCCC1` (centres undefined) the figure was inactive: -3.37%.
Take `COc1ccc(OP(C)(=O)Nc2ccc(Br)cc2)cc1` (centres undefined): the activation is inactive: 0.485%.
For `COc1ccccc1OP(C)(=O)Nc1c(C)n(C)n(-c2ccccc2)c1=O` (centres undefined), the activation was inactive: -22%.
Regarding `O=C(OCCCN1CCCC1)C(O)(c1ccccc1)C1CCCCC1` (centres undefined), the activation was inactive: 2.42%.
Turning to `CP(=O)(Oc1ccccc1)N1CCOC1=O` (centres undefined), the activation is inactive: -2.25%.
Take `CCc1ccc(OP(C)(=O)Nc2cccnc2)cc1` (centres undefined): the activation was inactive: -5.39%.
With `CCOC(=O)c1ccc(NP(C)(=O)Oc2ccc(OC)cc2)cc1` (centres undefined) the figure was inactive: 4.68%; with `CCOP(C)(=S)SCC(=O)NC(C)C(=O)O` (centres undefined), inactive: -1.98%.
Turning to `CP(=O)(Nc1ccc(SC(F)(F)F)cc1)Oc1ccc(Cl)cc1` (centres undefined), the activation was inactive: 0.864%.
Turning to `Cc1cccc(C)c1OP(C)(=O)Nc1ccc(SC(F)(F)F)cc1` (centres undefined), the activation is inactive: -4.45%.
With `CP(=O)(Oc1ccccc1)OC(c1ccccc1)C(F)(F)F` (centres undefined) the figure was inactive: -1.09%; with `CCc1ccc(OP(C)(=O)N2CCN(c3ccc([N+](=O)[O-])cc3)CC2)cc1` (centres undefined), inactive: -0.899%; with `CP(=O)(NC(=O)Nc1ccccc1)Oc1ccccc1` (centres undefined), inactive: 7.75%.
For the compound `Cc1cc(C)cc(OP(C)(=O)Nc2ccc(SC(F)(F)F)cc2)c1` (centres undefined), the activation was inactive: -0.81%.
Regarding `CP(=S)(Nn1cnnc1)Oc1ccccc1` (centres undefined), the activation is inactive: -4.86%.
With `CP(=O)(Nc1ccccc1Br)Oc1ccccc1` (centres undefined) the figure was inactive: -0.558%.
With `COc1ccccc1OP(C)(=O)Nc1ccccc1` (centres undefined) the figure was inactive: 1.28%.
With `COc1ccccc1OP(C)(=O)Nc1ccc(C)cc1` (centres undefined) the figure was inactive: -4.31%.
Take `Cc1ccc(NP(C)(=O)Oc2ccccc2)c(C)c1` (centres undefined): the activation was inactive: 19.5%.
With `CCOC(=O)c1ccc(NP(C)(=O)Oc2ccccc2)cc1` (centres undefined) the figure was inactive: -1.63%; with `Cc1cc(C)cc(OP(C)(N)=O)c1` (centres undefined), inactive: 2.79%.
With `COc1ccccc1OP(C)(=O)Nc1cc(Cl)ccc1C` (centres undefined) the figure was inactive: -4.71%; with `COc1ccc(OP(C)(=O)Nc2cccc(F)c2)cc1` (centres undefined), inactive: -2.35%; with `O=[N+]([O-])c1cc([N+](=O)[O-])c(Nc2cccnc2)c([N+](=O)[O-])c1`, inactive: 6.5%.
For the compound `O=[N+]([O-])c1ccc2c(c1)C=Nc1ccccc1O2`, the activation was inactive: -11.1%.
With `CC(C)(C)c1ccc(OP(C)(=O)Nc2ccc(SC(F)(F)F)cc2)cc1` (centres undefined) the figure was inactive: -2.87%; with `Cc1cccc(C)c1OP(C)(N)=O` (centres undefined), inactive: -4.39%.
With `CCN(CC)CCCOC(=O)C(O)(c1ccccc1)c1ccccc1` the figure was inactive: 1.66%; with `Cc1ccc(C)c(NP(C)(=O)Oc2ccccc2)c1` (centres undefined), inactive: -0.276%.
With `CP(=O)(Nc1cccc(Br)c1)Oc1ccccc1` (centres undefined) the figure was inactive: -4.55%; with `Cc1cc(C)cc(OP(C)(=O)Nc2ccccn2)c1` (centres undefined), inactive: -0.632%; with `COc1ccccc1OP(C)(=O)Nc1cccc(Br)c1` (centres undefined), inactive: 0.209%.
`CCOC(=O)c1ccc(NP(C)(=O)Oc2cc(C)cc(C)c2)cc1` (centres undefined): the activation was inactive: -3.93%.
Turning to `Cc1cc(C)cc(OP(C)(=O)Nc2ccc(C)cc2C)c1` (centres undefined), the activation was inactive: 0.156%.
With `CC1=NCCc2c1[nH]c1ccccc21.O=[N+]([O-])c1cc([N+](=O)[O-])c(O)c([N+](=O)[O-])c1` the figure was inactive: 1.88%; with `CN1CCCCC1COC(=O)C1(O)c2ccccc2CCc2ccccc21` (centres undefined), inactive: -0.13%; with `COc1ccccc1OP(C)(=O)Nc1c(C)cccc1C` (centres undefined), inactive: -0.682%.
As for `CP(=O)(Nc1ccc(SC(F)(F)F)cc1)Oc1ccccc1` (centres undefined), the activation was inactive: -5.2%.
With `CCCOc1ccc(NP(C)(=O)Oc2ccc(Cl)cc2)cc1` (centres undefined), the activation was inactive: 1.98%.
With `O=[N+]([O-])c1cc([N+](=O)[O-])c(Nc2nnnn2CCO)c([N+](=O)[O-])c1` the figure was inactive: -2.22%; with `CC1=C2N=C(C=C3N=C(C(C)=C4[N-][C@@](C)([C@@H]5N=C1[C@](C)(CCC(=O)NC[C@@H](C)OP(=O)([O-])O[C@H]1[C@@H](O)[C@@H](n6cnc7cc(C)c(C)cc76)O[C@@H]1CO)[C@H]5CC(N)=O)[C@@](C)(CC(N)=O)[C@@H]4CCC(N)=O)[C@@](C)(CC(N)=O)[C@@H]3CCC(N)=O)C(C)(C)[C@@H]2CCC(N)=O.[C-]#N.[Co+3]`, inactive: -20.7%; with `Cc1nc2ccc3ccccc3c2s1.O=[N+]([O-])c1cc([N+](=O)[O-])c(O)c([N+](=O)[O-])c1`, inactive: -3.62%.
For `O=[N+]([O-])c1cc([N+](=O)[O-])c(-n2nnc3ccccc32)c([N+](=O)[O-])c1`, the activation was inactive: -5.63%.
